Measured affinities in a library of Ab-14 light chain variants

Binding partner: SARS-CoV-2 spike HR2 peptide, sequence PDVDLGDISGINAS.

Parent: Ab-14, a human scFv built as VH, three GGGGS repeats, VL. Only the CDRs of the light chain vary.
VH: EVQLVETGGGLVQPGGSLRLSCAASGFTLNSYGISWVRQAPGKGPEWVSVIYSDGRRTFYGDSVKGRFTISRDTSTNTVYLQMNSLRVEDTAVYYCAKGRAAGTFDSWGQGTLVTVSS
VL: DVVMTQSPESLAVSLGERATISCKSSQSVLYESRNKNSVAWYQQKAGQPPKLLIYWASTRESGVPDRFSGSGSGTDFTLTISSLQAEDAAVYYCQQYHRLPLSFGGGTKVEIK

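The starting antibody came from a phage panning campaign against this peptide. Variants in AAYL50 differ from the parent at up to three CDR positions; double and triple changes were sampled at random. In AlphaSeq, yeast of one mating type display the scFv and yeast of the other type display the target. Binding brings cells together so that they mate, and sequencing counts the barcode pairs among the diploids. Read counts were normalised to the haploid input and turned into Kd by a linear fit to BCL2-family pairs of known affinity, for each replicate. The assay was run in three technical replicates.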

Variants are written as CDR1, CDR2 and CDR3 of the light chain (limits as in the source). Parent: KSSQSVLYESRNKNSVA, WASTRES, QQYHRLPLS.
This list gathers variants with a substitution at L30 (VL, numbered from residue 1).
Kd is apparent (estimated from mating counts) and averaged on the log scale over replicates with a signal. Smaller is tighter.
An entry "no signal" has no value in the source: the pair was not observed among the diploids in any replicate. This suggests poor binding but is not conclusive.
Nonspecific signal, from three strains lacking the peptide, appeared in 18% of pairings of library AAYL50, centred on 15 µM (5% of these signals below 970 nM); values are not corrected for it.

| CDR-L1 | CDR-L2 | CDR-L3 | apparent Kd | seen in |
|---|---|---|---|---|
| KSSQSCHYESRNKNSVA | WASTREN | QQYHRLPLS | 8.3 nM | 3/3 |
| KSNQSVWYESRNKNSVA | WASTRES | QWYHRLPLS | 23 nM | 3/3 |
| KSSQSVGYESRNKNRVA | WFSTRES | QQYHRLPLS | no signal | 0/3 |
| KSSQSAYYESRNKNSNA | WASTRES | QQYHRLPLS | 630 µM | 3/3 |
| KSSWSVCYESRNKNSVA | WASTRES | QQYHRLPLS | 4.2 µM | 1/3 |
| KSSQSVIYESRNKVSVA | WCSTRES | QQYHRLPLS | 46 µM | 3/3 |
| KSNQSVAYESKNKNSVA | WASTRES | QQYHRLPLS | 7.6 nM | 3/3 |
| KSSQSVSYESRNKNSVA | IASTRES | QQYHRLPLK | no signal | 0/3 |
| KSSQSLPYESNNKNSVA | WASTRES | QQYHRLPLS | 3.1 nM | 3/3 |
| KSSQSVRYESRCKNSVA | WASTRES | CQYHRLPLS | no signal | 0/3 |
| KSSQSVRYESRNKNSVL | WASTRES | QQYHRLDLS | no signal | 0/3 |
| KSSQSMVYESRWKNSVA | WASTRES | QQYHRLPLS | 600 nM | 1/3 |
| KWSQSVAYESRNKNSVA | WASTRES | QQEHRLPLS | 19 nM | 3/3 |
| KSSQSVRYEKRNGNSVA | WASTRES | QQYHRLPLS | 39 nM | 3/3 |
| KSSQSVVYESKNKASVA | WASTRES | QQYHRLPLS | 6.8 µM | 2/3 |
| KSSQSVKYESRNKNSVA | HASTRES | CQYHRLPLS | 1.4 µM | 3/3 |
| KSSQSVMYESRLKNSVA | WASTRES | QQLHRLPLS | 13 nM | 3/3 |
| KSSQSVHYESRNKNSVA | WASTREG | QQYHRMPLS | 22 µM | 1/3 |
| KSSQSVFYESRNKNSVA | IAITRES | QQYHRLPLS | no signal | 0/3 |
| KSSQSVAYESRNKNSVA | WASTRES | QQLHRLPLS | 110 nM | 3/3 |
| KSSQSVTYESRNKNSVA | WASTRKV | QQYHRLPLS | 870 nM | 3/3 |
| KSSQSVIYESRNKNQVA | WASTRES | QQYHRLLLS | 54 nM | 3/3 |
| KSSQSVIYESRNKTSVA | WASTRES | QQYHRNPLS | 1.8 µM | 3/3 |
| KYSQSHTYESRNKNSVA | WASTRES | QQYHRLPLS | 320 nM | 1/3 |
| KSSQSVYYESRNKNSVA | WASTRES | QQYHLLPQS | 6.2 µM | 1/3 |
| KSSQFVCYESRNKNSVA | WASTRES | QQYHRLPLK | 4.3 µM | 3/3 |
| KSSQSVTYEERNKNSVA | WAGTRES | QQYHRLPLS | 39 nM | 3/3 |
| KSSQSVRYESRNKNSVA | WASTRES | QQYHRLPLS | 2.2 nM | 3/3 |
| KSSQSVDYESRNKNSVA | WASTRES | QQYHRLPLS | 5.6 nM | 3/3 |
| KSSQSVWYESRNKNSVA | WASTRES | QQYEELPLS | 7.6 nM | 3/3 |
| KCSQSVIYESRNKNSVA | WASTREQ | QQYHRLPLS | 1.3 nM | 3/3 |
| KSSQSVSYESGNKNSVA | WASTRES | QQYSRLPLS | 5.4 nM | 3/3 |
| KSSQSVIYESRNKNSIA | WACTRES | QQYHRLPLS | no signal | 0/3 |
| KSSQSVGYESRNKNSVA | WASTRES | QQYHRLPQE | no signal | 0/3 |
| KSSQSVCYHSRNKNSVA | WASTRES | QQYHRLPLH | 120 nM | 3/3 |
| KSSQSVRYESRNKNSVA | WASTRES | QQYHRIPLF | no signal | 0/3 |
| KSSQSVGYESRGKNSLA | WASTRES | QQYHRLPLS | 270 nM | 3/3 |
| KSSQSVIYESRNKNSVA | LASTRES | QQVHRLPLS | 47 nM | 3/3 |
| KSSQSVQYESRNKNSVA | WASTRES | AQYHRLALS | 14 nM | 3/3 |
| KSSQSVHYESRNKNSVA | WADTRES | QQYHRLHLS | no signal | 0/3 |
| KSSQSVNYESRNKNSVA | WASTREL | QQYHRLPLS | 6.4 µM | 1/3 |
| KSSQSFTYESRNKNSVA | HASTRES | QQYHRLPLS | 880 pM | 3/3 |
| KSSQSVCYESRNKNSVA | WASTRES | QQYHRLPVS | no signal | 0/3 |
| KSSQSVFYESRNWNSVA | WASTRES | QNYHRLPLS | no signal | 0/3 |
| KSSQSVGYESRNKNSVA | WASTRES | QQPHRLPLS | 29 nM | 3/3 |
| KSSQSVPYESRNKNSVA | WASLRES | QQYHRLPLS | 6.0 nM | 3/3 |
| KSSQSVRYISRNKNQVA | WASTRES | QQYHRLPLS | 17 µM | 1/3 |
| KSSQSVSYESRNKNSVA | EFSTRES | QQYHRLPLS | 16 nM | 3/3 |

The opening 5 entries, copied out:

| CDR-L1 | CDR-L2 | CDR-L3 | apparent Kd | seen in |
|---|---|---|---|---|
| KSSQSCHYESRNKNSVA | WASTREN | QQYHRLPLS | 8.3 nM | 3/3 |
| KSNQSVWYESRNKNSVA | WASTRES | QWYHRLPLS | 23 nM | 3/3 |
| KSSQSVGYESRNKNRVA | WFSTRES | QQYHRLPLS | no signal | 0/3 |
| KSSQSAYYESRNKNSNA | WASTRES | QQYHRLPLS | 630 µM | 3/3 |
| KSSWSVCYESRNKNSVA | WASTRES | QQYHRLPLS | 4.2 µM | 1/3 |

In this assay the parent's reference entry averaged 4.4 nM; its copy inside this library read 48 nM.

From the AlphaSeq antibody data of Engelhart et al. 2022 (doi:10.1038/s41597-022-01779-4), copy in the FLAb collection.